{
  "source": "paper PMC7581279",
  "about": "(2013)",
  "target": "recombinant HIV-1 IN ST activity (Human immunodeficiency virus type 1 group M subtype B, UniProt P04585)",
  "experiment": "biochemical",
  "data": [
    {"molecule": "CCOC(=O)C(=O)CC(=O)/C=C/c1cccn1Cc1ccc(C)cc1", "note": "[7d, 6-[1-(4-Methylphenyl)methyl-1H-pyrrol-2-yl]-2,4-dioxo-5-hexenoic Acid Ethyl Ester]", "values": [
      {"measurement": "IC50", "result": "> 111", "unit": "µM"}
    ]}
  ]
}
